Measured values: patent US12331044B2, “Inhibitors of histone deacetylase useful for the treatment or prevention of HIV infection” (Merck Sharp & Dohme LLC, priority 2018, dated 2025)
Like-named read-outs stand apart in the source and are kept apart here.

Amino acid sequences for entries named in this document (tags omitted). A change or cut given only in a name is not applied to a line headed by its entry.
UniProt Q9BY41: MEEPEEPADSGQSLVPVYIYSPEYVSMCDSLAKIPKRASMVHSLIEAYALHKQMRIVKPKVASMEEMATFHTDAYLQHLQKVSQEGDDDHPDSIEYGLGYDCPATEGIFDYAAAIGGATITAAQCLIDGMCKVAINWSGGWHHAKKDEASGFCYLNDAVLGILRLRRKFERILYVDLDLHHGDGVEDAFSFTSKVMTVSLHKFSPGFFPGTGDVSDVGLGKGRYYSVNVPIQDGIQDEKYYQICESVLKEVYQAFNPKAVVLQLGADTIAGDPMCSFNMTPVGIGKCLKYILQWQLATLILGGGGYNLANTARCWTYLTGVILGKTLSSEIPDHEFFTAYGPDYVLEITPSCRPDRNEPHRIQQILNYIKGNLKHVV
UniProt Q92769, whole entry: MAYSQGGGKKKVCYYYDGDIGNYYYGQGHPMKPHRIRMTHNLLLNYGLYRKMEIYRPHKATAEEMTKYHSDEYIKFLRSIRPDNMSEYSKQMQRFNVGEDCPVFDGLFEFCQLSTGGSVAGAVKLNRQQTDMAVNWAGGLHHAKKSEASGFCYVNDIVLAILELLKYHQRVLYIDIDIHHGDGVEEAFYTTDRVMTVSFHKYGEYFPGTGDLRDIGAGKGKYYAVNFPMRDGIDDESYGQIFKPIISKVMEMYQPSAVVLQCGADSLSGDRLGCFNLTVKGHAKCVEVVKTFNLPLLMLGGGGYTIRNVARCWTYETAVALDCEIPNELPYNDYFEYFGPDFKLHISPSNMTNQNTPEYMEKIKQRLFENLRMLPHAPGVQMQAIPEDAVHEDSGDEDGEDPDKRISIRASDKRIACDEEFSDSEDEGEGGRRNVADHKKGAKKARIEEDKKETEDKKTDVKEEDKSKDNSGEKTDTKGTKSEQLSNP
UniProt Q13547, whole entry: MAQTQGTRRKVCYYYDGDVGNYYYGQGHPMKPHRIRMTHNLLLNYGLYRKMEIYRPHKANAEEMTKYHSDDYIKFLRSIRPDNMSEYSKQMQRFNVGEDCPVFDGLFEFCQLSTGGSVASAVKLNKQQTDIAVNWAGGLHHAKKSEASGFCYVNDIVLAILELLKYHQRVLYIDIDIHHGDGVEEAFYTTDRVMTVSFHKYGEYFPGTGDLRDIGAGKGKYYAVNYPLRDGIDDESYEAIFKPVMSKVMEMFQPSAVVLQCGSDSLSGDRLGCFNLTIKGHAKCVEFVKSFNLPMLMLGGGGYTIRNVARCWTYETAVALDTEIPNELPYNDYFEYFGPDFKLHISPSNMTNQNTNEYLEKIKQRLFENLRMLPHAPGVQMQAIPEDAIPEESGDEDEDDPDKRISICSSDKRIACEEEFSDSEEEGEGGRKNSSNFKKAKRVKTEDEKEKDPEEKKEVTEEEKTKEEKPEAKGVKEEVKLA
UniProt Q9UBN7: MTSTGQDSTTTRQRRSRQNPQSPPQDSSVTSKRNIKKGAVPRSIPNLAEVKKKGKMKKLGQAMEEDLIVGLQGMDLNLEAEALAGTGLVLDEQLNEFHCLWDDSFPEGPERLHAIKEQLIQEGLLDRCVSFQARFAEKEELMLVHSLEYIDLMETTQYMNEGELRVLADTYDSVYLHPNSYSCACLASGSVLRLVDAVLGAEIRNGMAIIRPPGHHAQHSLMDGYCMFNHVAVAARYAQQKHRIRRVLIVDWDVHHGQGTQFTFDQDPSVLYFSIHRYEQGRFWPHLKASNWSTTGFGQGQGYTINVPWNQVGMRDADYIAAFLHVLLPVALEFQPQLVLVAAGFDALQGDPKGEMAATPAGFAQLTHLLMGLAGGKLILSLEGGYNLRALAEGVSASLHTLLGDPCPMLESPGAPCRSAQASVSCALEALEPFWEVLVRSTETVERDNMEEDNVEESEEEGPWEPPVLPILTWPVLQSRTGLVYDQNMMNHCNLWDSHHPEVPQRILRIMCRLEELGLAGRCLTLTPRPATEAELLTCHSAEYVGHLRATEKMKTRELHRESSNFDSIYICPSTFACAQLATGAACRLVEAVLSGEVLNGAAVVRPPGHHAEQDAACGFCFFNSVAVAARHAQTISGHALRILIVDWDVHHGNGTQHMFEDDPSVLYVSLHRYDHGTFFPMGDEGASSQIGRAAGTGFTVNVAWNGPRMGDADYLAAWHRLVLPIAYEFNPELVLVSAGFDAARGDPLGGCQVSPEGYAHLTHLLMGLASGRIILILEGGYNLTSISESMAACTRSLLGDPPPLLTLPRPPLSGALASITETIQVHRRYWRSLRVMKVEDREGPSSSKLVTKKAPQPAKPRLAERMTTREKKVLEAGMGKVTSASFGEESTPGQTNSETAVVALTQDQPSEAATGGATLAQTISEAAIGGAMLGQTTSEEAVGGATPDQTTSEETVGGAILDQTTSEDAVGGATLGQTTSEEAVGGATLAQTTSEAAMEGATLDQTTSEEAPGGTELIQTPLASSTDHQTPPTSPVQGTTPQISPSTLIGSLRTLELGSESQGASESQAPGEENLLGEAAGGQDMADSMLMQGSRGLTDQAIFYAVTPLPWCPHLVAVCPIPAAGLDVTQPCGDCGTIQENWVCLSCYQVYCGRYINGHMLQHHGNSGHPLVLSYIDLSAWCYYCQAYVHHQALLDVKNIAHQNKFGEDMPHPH

Assays:
human HDAC8 = human HDAC8 (Homo sapiens (Human), UniProt Q9BY41); experiment: HDAC8 inhibition assay (modified FLUOR DE LYS, 384-well); format: biochemical; conditions: […] enzyme, 200 μM substrate BML-KI178, 3 h pre-incubation
human HDAC2 = human HDAC2 (Homo sapiens (Human), UniProt Q92769); experiment: HDAC2 inhibition assay (modified FLUOR DE LYS, 384-well); format: biochemical
human HDAC1 = human HDAC1 (Homo sapiens (Human), UniProt Q13547)
HDAC6 = HDAC6 (Homo sapiens (Human), UniProt Q9UBN7)
[1] = […] enzyme, 40 μM substrate BML-KI104, 3 h pre-incubation

Row | Compound | IC50 (human HDAC8) [µM] | IC50 (human HDAC2; [1]) [µM] | IC50 (human HDAC1) [µM] | IC50 (HDAC6) [µM] | IC50 (human HDAC2) [µM]
1 | CN1CC(C(=O)N[C@@H](CCCCCC(=O)c2ccon2)c2nnc(-c3ccccc3F)o2)C1 [Example 106, (S)-N-(1-(5-(2-fluorophenyl)-1,3,4-oxadiazol-2-yl)-7-(isoxazol-3-yl)-7-oxoheptyl)-1-methylazetidine-3-carboxamide] | > 0.9 | 0.101 | 0.051 | > 0.9 | –
2 | N[C@@H](CCCCCC(=O)c1cocn1)c1ncc(-c2ccccc2F)[nH]1 [Example 36, (S)-7-amino-7-(5-(2-fluorophenyl)-1H-imidazol-2-yl)-1-(oxazol-4-yl)heptan-1-one] | – | – | 0.17 | – | 0.74
3 | NC(CCCCCC(=O)c1ccon1)c1cnn(-c2ccc(F)cc2)n1 (stereo not drawn) [Example 124, 7-amino-7-[2-(4-fluorophenyl)-2H-1,2,3-triazol-4-yl]-1-isoxazol-3-ylheptan-1-one] | – | 1.2 | 0.45 | – | –
4 | N[C@@H](CCCCCC(=O)c1ccon1)c1cc(-c2ccccc2F)on1 [Example 125, (7S)-7-amino-7-[5-(2-fluorophenyl)isoxazol-3-yl]-1-isoxazol-3-ylheptan-1-one] | – | – | – | > 0.9 | –
5 | CN1CC(C(=O)N[C@@H](CCCCCC(=O)c2ncco2)c2nc(-c3ccc(F)cc3)c[nH]2)C1 [Example 1, (S)-N-(1-(4-(4-fluorophenyl)-1H-imidazol-2-yl)-7-(oxazol-2-yl)-7-oxoheptyl)-1-methylazetidine-3-carboxamide] | 0.1 | 0.0071 | – | – | –
6 | Cc1cc(C(=O)CCCCC[C@H](NC(=O)C2CN(C)C2)c2nc(-c3ccccc3F)c[nH]2)no1 [Example 59] | 0.016 | 0.00076 | 0.00016 | – | –
7 | NC(CCCCCC(=O)c1ccon1)c1cnn(-c2ccc(F)cc2)c1 (stereo not drawn) [Example 121, 7-amino-7-[1-(4-fluorophenyl)-1H-pyrazol-4-yl]-1-isoxazol-3-ylheptan-1-one] | 0.47 | 0.061 | – | – | –
8 | NC(CCCCCC(=O)c1ccon1)c1cnn(-c2ccc(F)cc2)c1 (stereo not drawn) [Example 122, 7-amino-7-[1-(4-fluorophenyl)-1H-pyrazol-4-yl]-1-isoxazol-3-ylheptan-1-one] | – | 1.6 | – | – | –
9 | CN1CC(C(=O)NC(CCCCCC(=O)c2ccon2)c2ncc(-c3ccccc3F)o2)C1 (stereo not drawn) [Example 107, N-(1-(5-(2-fluorophenyl)oxazol-2-yl)-7-(isoxazol-3-yl)-7-oxoheptyl)-1-methylazetidine-3-carboxamide] | 0.032 | 0.00082 | 0.0002 | > 0.9 | –
10 | NC(CCCCCC(=O)c1ccon1)c1cnn(-c2ccc(F)cc2)n1 (stereo not drawn) [Example 123, 7-amino-7-[2-(4-fluorophenyl)-2H-1,2,3-triazol-4-yl]-1-isoxazol-3-ylheptan-1-one] | 0.44 | 0.081 | 0.025 | – | –
